Results on one molecule are retold here after patent US10815241B2, “Optically active azabicyclo ring derivative” (priority 2018, dated 2020).

Amino acid sequences for entries named in this document (tags omitted).
UniProt Q12809, whole entry: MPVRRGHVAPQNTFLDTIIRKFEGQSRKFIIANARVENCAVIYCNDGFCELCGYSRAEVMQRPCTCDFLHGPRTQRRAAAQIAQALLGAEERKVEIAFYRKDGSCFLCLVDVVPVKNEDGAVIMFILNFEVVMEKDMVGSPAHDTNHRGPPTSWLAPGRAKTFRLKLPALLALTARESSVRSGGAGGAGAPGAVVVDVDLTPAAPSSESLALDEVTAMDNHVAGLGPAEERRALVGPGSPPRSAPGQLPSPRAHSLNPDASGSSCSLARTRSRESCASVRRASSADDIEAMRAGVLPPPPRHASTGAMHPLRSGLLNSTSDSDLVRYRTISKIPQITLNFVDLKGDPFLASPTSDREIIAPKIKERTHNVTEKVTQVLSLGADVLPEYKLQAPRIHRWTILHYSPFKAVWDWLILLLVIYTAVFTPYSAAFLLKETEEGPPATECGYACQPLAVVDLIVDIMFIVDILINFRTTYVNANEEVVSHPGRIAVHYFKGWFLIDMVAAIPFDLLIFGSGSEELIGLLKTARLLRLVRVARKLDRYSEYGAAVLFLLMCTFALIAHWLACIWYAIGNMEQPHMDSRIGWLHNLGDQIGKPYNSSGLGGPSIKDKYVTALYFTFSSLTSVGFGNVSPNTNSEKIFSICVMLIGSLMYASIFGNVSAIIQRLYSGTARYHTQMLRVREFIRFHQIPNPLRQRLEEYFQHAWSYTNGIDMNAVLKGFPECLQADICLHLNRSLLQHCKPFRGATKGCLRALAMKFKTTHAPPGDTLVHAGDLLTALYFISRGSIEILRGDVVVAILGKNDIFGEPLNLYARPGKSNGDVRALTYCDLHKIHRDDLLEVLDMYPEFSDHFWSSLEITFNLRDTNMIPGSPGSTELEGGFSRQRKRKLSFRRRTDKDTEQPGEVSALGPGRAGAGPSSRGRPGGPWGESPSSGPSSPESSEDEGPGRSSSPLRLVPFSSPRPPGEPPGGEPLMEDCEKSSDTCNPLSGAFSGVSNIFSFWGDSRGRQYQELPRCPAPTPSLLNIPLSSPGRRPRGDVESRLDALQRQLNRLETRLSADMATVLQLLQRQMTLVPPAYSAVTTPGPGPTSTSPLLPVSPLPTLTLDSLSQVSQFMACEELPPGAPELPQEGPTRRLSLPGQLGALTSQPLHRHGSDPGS

Assay type in all cases: cell-based
Data set [1] addresses hERG (human Ether-a-go-go Related Gene) (Homo sapiens (Human), UniProt Q12809). Put plainly: Test 4: hERG inhibition (QPatch HT, CHO cells stably expressing hERG). To be noted: read-out: hERG inhibition IC50, hERG current.
For the next data set, the system named is RS4; 11 cells. Put plainly: Test 2: inhibition of cell proliferation, RS4;11. To be noted: read-out: IC50 RS4, 7 days, PrestoBlue cell viability.
The next data set has as its system MOLM-13 cells. In words: Test 2: inhibition of cell proliferation, MOLM-13. To be noted: read-out: IC50 MOLM-13, 7 days, PrestoBlue cell viability.

In the case of `CC(C)N(C(=O)c1cc(F)ccc1Oc1cncnc1N1CC2(CCN(C(=O)[C@H]3N[C@H]4CC[C@@H]3[C@H](O)C4)CC2)C1)C(C)C`, the IC50 is more than 100000 nM in data set [1], more than 3000 nM in the data set with RS4; 11 cells and 1600 nM in the data set on MOLM-13 cells.
